Source: ChEMBL document CHEMBL4311951, “Potent and Preferential Degradation of CDK6 via Proteolysis Targeting Chimera Degraders” (J Med Chem, 2019)

Sequences of proteins named here, by UniProt entry; tags and fusion partners are left off. A change or cut given only in a name is not applied to a line headed by its entry.
UniProt Q00534, whole entry, looked up: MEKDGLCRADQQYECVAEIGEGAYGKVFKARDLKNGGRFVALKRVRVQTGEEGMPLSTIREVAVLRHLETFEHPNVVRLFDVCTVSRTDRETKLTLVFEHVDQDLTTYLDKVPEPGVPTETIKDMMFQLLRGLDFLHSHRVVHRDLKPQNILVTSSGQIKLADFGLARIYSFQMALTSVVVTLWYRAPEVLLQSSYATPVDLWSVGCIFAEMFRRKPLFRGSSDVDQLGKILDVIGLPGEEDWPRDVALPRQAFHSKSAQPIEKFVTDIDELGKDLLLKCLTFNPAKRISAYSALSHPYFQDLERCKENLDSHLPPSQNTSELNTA
UniProt Q96SW2: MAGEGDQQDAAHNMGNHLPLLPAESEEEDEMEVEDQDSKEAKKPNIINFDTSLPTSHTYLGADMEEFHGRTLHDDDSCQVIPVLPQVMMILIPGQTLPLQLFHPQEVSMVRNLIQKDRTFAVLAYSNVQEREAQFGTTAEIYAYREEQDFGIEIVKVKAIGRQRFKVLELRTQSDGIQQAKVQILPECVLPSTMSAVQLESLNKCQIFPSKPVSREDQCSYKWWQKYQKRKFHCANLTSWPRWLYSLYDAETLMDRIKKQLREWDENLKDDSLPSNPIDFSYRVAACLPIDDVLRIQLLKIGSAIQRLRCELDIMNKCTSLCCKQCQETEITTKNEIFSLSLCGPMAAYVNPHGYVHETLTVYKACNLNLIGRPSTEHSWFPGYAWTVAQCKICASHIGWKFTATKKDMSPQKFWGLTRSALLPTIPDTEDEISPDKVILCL
UniProt P11802: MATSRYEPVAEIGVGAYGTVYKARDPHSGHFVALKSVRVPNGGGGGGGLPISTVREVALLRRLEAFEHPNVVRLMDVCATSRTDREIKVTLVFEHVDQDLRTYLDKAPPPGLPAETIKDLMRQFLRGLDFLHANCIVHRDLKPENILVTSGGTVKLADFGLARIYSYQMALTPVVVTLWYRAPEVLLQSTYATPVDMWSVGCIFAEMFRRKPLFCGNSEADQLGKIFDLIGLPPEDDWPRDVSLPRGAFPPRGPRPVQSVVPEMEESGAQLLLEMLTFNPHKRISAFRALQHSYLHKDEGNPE

Tests used:
Type in all cases: cell-based
[1] = biological target: T1, Protein cereblon/Cyclin-dependent kinase 6 (Homo sapiens, UniProt Q00534+Q96SW2); assay: Induction of CRBN-mediated CDK6 degradation in human U251 cells assessed as CDK6 level at 0.1 nM by immunoblot analysis relative to control
[2] = biological target: T1, Protein cereblon/Cyclin-dependent kinase 6; assay: Induction of CRBN-mediated CDK6 degradation in human U251 cells assessed as CDK6 level at 0.33 nM by immunoblot analysis relative to control
[3] = biological target: T1, Protein cereblon/Cyclin-dependent kinase 6; assay: Induction of CRBN-mediated CDK6 degradation in human U251 cells assessed as CDK6 level at 1 nM by immunoblot analysis relative to control
[4] = biological target: T1, Protein cereblon/Cyclin-dependent kinase 6; assay: Induction of CRBN-mediated CDK6 degradation in human U251 cells assessed as CDK6 level at 3.3 nM by immunoblot analysis relative to control
[5] = biological target: T1, Protein cereblon/Cyclin-dependent kinase 6; assay: Induction of CRBN-mediated CDK6 degradation in human U251 cells assessed as CDK6 level at 10 nM by immunoblot analysis relative to control
[6] = biological target: T1, Protein cereblon/Cyclin-dependent kinase 6; assay: Induction of CRBN-mediated CDK6 degradation in human U251 cells assessed as CDK6 level at 33 nM by immunoblot analysis relative to control
[7] = biological target: T1, Protein cereblon/Cyclin-dependent kinase 6; assay: Induction of CRBN-mediated CDK6 degradation in human U251 cells assessed as CDK6 level at 100 nM by immunoblot analysis relative to control
[8] = biological target: T1, Protein cereblon/Cyclin-dependent kinase 6; assay: Induction of CRBN-mediated CDK6 degradation in human U251 cells assessed as CDK6 level at 330 nM by immunoblot analysis relative to control
[9] = biological target: T1, Protein cereblon/Cyclin-dependent kinase 6; assay: Induction of CRBN-mediated CDK6 degradation in human U251 cells assessed as CDK6 level at 1000 nM by immunoblot analysis relative to control
[10] = biological target: T1, Protein cereblon/Cyclin-dependent kinase 6; assay: Induction of CRBN-mediated CDK6 degradation in human U251 cells assessed as CDK6 level at 3300 nM by immunoblot analysis relative to control
[11] = biological target: T1, Protein cereblon/Cyclin-dependent kinase 6; assay: Induction of CRBN-mediated CDK6 degradation in human U251 cells assessed as CDK6 level at 10000 nM by immunoblot analysis relative to control
[12] = biological target: T2, Protein cereblon/Cyclin-dependent kinase 4 (Homo sapiens, UniProt P11802+Q96SW2); assay: Induction of CRBN-mediated CDK4 degradation in human U251 cells assessed as CDK4 level at 0.1 nM after 24 hrs by immunoblot analysis relative to control
[13] = biological target: T2, Protein cereblon/Cyclin-dependent kinase 4; assay: Induction of CRBN-mediated CDK4 degradation in human U251 cells assessed as CDK4 level at 0.33 nM after 24 hrs by immunoblot analysis relative to control
[14] = biological target: T2, Protein cereblon/Cyclin-dependent kinase 4; assay: Induction of CRBN-mediated CDK4 degradation in human U251 cells assessed as CDK4 level at 1 nM after 24 hrs by immunoblot analysis relative to control
[15] = biological target: T2, Protein cereblon/Cyclin-dependent kinase 4; assay: Induction of CRBN-mediated CDK4 degradation in human U251 cells assessed as CDK4 level at 3.3 nM after 24 hrs by immunoblot analysis relative to control
[16] = biological target: T2, Protein cereblon/Cyclin-dependent kinase 4; assay: Induction of CRBN-mediated CDK4 degradation in human U251 cells assessed as CDK4 level at 10 nM after 24 hrs by immunoblot analysis relative to control
[17] = biological target: T2, Protein cereblon/Cyclin-dependent kinase 4; assay: Induction of CRBN-mediated CDK4 degradation in human U251 cells assessed as CDK4 level at 33 nM after 24 hrs by immunoblot analysis relative to control
[18] = biological target: T2, Protein cereblon/Cyclin-dependent kinase 4; assay: Induction of CRBN-mediated CDK4 degradation in human U251 cells assessed as CDK4 level at 100 nM after 24 hrs by immunoblot analysis relative to control
[19] = biological target: T2, Protein cereblon/Cyclin-dependent kinase 4; assay: Induction of CRBN-mediated CDK4 degradation in human U251 cells assessed as CDK4 level at 330 nM after 24 hrs by immunoblot analysis relative to control
[20] = biological target: T2, Protein cereblon/Cyclin-dependent kinase 4; assay: Induction of CRBN-mediated CDK4 degradation in human U251 cells assessed as CDK4 level at 1000 nM after 24 hrs by immunoblot analysis relative to control
[21] = biological target: T2, Protein cereblon/Cyclin-dependent kinase 4; assay: Induction of CRBN-mediated CDK4 degradation in human U251 cells assessed as CDK4 level at 3300 nM after 24 hrs by immunoblot analysis relative to control
[22] = biological target: T2, Protein cereblon/Cyclin-dependent kinase 4; assay: Induction of CRBN-mediated CDK4 degradation in human U251 cells assessed as CDK4 level at 10000 nM after 24 hrs by immunoblot analysis relative to control
[23] = biological target: T1, Protein cereblon/Cyclin-dependent kinase 6; assay: Induction of CRBN-mediated CDK6 degradation in human U251 cells at 100 nM measured after 2 to 6 hrs by time-lapse analysis
Homo sapiens = species: Homo sapiens; assay: Selectivity ratio, ratio of DC50 for induction of CRBN-mediated CDK4 degradation in human U251 cells to DC50 for induction of CRBN-mediated CDK6 degradation in human U251 cells
[24] = biological target: T1, Protein cereblon/Cyclin-dependent kinase 6; assay: Induction of CRBN-mediated CDK6 degradation in human U251 cells at 100 nM in presence of palbociclib after 24 hrs by immunoblot analysis
[25] = biological target: T1, Protein cereblon/Cyclin-dependent kinase 6; assay: Induction of CRBN-mediated CDK6 degradation in human U251 cells at 100 nM in presence of pomalidomide after 24 hrs by immunoblot analysis
[26] = biological target: T1, Protein cereblon/Cyclin-dependent kinase 6; assay: Induction of CRBN-mediated CDK6 degradation in human U251 cells at 500 nM in presence of proteasomal inhibitor carfilzomib after 8 hrs by immunoblot analysis
[27] = biological target: T1, Protein cereblon/Cyclin-dependent kinase 6; assay: Induction of CRBN-mediated CDK6 degradation in human U251 cells at 500 nM in presence of neddylation inhibitor MLN4924 after 8 hrs by immunoblot analysis

Activity [1]: 64.1%
Activity [2]: 79.2%
Activity [3]: 78.4%
Activity [4]: 47.1%
Activity [5]: 28.5%
Activity [6]: 10.5%
Activity [7]: 11.3%
Activity [8]: 9.3%
Activity [9]: 7.9%
Activity [10]: 7.7%
Activity [11]: 9.9%
Activity [12]: 130%
Activity [13]: 152%
Activity [14]: 146%
Activity [15]: 138%
Activity [16]: 108%
Activity [17]: 61%
Activity [18]: 46.4%
Activity [19]: 24.8%
Activity [20]: 30.7%
Activity [21]: 45.7%
Activity [22]: 90.2%
Activity [23]: Active
Activity [24]: inactive
Activity [25]: inactive
Activity [26]: inactive
Activity [27]: inactive
SMILES: CC(=O)c1c(C)c2cnc(Nc3ccc(N4CCN(Cc5cn(CCOCCNc6cccc7c6C(=O)N(C6CCC(=O)NC6=O)C7=O)nn5)CC4)cn3)nc2n(C2CCCC2)c1=O (stereo not drawn)
Ratio (Homo sapiens): 50 to 80

Active and inactive are the calls of the source. The calls are words filed in the database; no cut-off is given here.
